Source: patent US12336991B2, “Factor XIIA inhibitors” (UNIVERSITY OF LEEDS, priority 2018, dated 2025)

By UniProt entry, the sequences of proteins in these tests, tags left out. Residues count along the entry.
UniProt P00742, 235-488 limits assumed: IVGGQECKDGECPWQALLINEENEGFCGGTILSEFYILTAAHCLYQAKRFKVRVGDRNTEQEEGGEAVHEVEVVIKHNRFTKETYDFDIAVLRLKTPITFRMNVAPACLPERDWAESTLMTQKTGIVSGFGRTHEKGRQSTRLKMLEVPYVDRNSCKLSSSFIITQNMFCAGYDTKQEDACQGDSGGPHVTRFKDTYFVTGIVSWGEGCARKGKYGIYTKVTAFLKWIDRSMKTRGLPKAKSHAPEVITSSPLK
UniProt P00742, 41-179 partner limits assumed: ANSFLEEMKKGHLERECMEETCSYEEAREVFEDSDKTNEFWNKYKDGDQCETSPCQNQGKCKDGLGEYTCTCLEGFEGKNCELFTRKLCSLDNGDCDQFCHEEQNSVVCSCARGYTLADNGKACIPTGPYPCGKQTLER
UniProt P00748, 373-615 limits assumed: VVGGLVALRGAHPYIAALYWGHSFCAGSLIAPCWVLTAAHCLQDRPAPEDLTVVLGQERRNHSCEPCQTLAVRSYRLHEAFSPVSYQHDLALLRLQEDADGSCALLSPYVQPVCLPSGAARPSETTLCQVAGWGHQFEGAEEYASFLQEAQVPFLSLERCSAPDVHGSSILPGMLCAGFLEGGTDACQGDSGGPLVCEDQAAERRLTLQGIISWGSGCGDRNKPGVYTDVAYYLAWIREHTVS
UniProt P00748, 20-372 partner limits assumed: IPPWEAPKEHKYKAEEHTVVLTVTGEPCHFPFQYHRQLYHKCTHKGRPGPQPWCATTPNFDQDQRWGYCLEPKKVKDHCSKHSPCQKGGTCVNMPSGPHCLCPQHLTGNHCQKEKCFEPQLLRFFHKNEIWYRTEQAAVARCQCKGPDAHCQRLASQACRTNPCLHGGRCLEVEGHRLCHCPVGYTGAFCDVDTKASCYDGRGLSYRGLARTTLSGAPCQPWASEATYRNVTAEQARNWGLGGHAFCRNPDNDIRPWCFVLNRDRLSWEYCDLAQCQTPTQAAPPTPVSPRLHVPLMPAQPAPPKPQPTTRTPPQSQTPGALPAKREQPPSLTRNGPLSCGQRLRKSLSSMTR

Columns and labels:
FXa = FXa (Homo sapiens, UniProt P00742); test: Determination of selectivity: FXa inhibition, chromogenic substrate S2765 assay; settings: fold selectivity for FXIIa over FXa
Description: (§1) The activities of the compounds of the invention have been determined in vitro using the following assays protocols for the screening of activity of FXIIa and other proteases. Each of these assays were performed in a purified system employing the use of chromogenic assays in microplate plate wells. Chromogenic peptide substrates mimicking natural protein substrates are attached via an amide bond to a chromogenic group. Paranitroaniline (pNA) is released from the peptide following catalyses by the proteolytic enzyme; the absorbance increases and can be monitored at 405 nm.
(§2) All compounds were dissolved in 100% (v/v) DMSO to a stock concentration of 10 mM, the highest concentration of compound used in each assay is 500 μM. The final concentrations of DMSO were 5% (v/v) in 50 mM Tris 137 mM NaC pH 7.4. Where no test compound was added a final concentration of 5% DMSO was employed.
(§3) Determination of Selectivity
(§4) To determine selectivity of test compounds, these test compounds were assayed for inhibitory activity against other serine proteases including FXa and thrombin. […] Kinetic readings at 405 nm were monitored every 12 secs for a total duration of 3 hours at 37° C. Gradients of initial rates were determined and employed to calculate IC50 values. […]
(§5) Where [Substrate] denotes the concentration of substrate used in the assay and Km is the determined value of each enzyme with its own substrate. […]

FXIIa = FXIIa (Homo sapiens, UniProt P00748); test: Determination of Factor XIIa inhibition, chromogenic substrate S-2302 assay; settings: read-out: FXIIa alpha (Human) Ki
Description: as §1, §2
Determination of Factor XIa Inhibition
Factor XIa activity was measured using a chromogenic substrate S-2302 (Chromogenix). […] Kinetic readings at 405 nm were monitored every 12 secs for a total duration of 3 hours at 37° C. Gradients of initial rates were determined and employed to calculate IC50 values. […]

thrombin = thrombin (Homo sapiens, UniProt P00734); test: Determination of selectivity: thrombin inhibition, chromogenic substrate GPR assay; settings: fold selectivity for FXIIa over thrombin
Description: as §1, §2, §3, §4, §5

Compound	FXa (human)/FXIIa alpha (human) (FXa)	Ki (FXIIa)	Thrombin (human)/FXIIa alpha (human) (thrombin)
Cn1nnc2cc(CNC(=O)[C@@H]3C[C@@H](Cc4ccc(-c5cccnc5)cc4)CN3C(=O)[C@H]3C[C@@H](c4ccccc4)CN3)ccc21	∘∘	> 2000 nM	++ (fold selectivity value of 10 to 100)
NCc1ccc(CNC(=O)[C@@H]2CCCN2C(=O)[C@H](N)CCC(=O)N2CCC(C(F)(F)F)C2)cc1 (stereo partly drawn)	∘∘	> 2000 nM	+ (fold selectivity values less than 10)
